# Reference: patent US20240150372A1 (priority 2021, published 2024)
# Key:
# Fisher F-344 rats = experiment: Intermittent access fentanyl self-administration with progressive ratio probes
# [1] = Body mass measurements during the fentanyl intermittent access study; settings: repeated administration
# male F344 rats = experiment: Fentanyl intravenous self-administration; settings: single injection 40 mg/kg
smiles,measurement,setting,value
CCC1CC2CC3c4oc5ccc(O)cc5c4CCN(C2)C13 (stereo not shown) [oxa-noribogaine],decrease in PR breaking point value post treatment,Fisher F-344 rats; subject #739,228%
same,increase in PR breaking point value post treatment,Fisher F-344 rats; subject #741,12%
same,decrease in PR breaking point value post treatment,Fisher F-344 rats; subject #746,659%
same,decrease in PR breaking point value post treatment,Fisher F-344 rats; subject #756,47%
same,body weight,[1],no effect on the body weight of test subjects
same,duration of observable suppression trends of fentanyl intake,male F344 rats,at least 5 days
same,duration of statistically significant suppression of fentanyl intake,male F344 rats,4 days
